Data: US12606543B2, “Indole derivatives as serotonergic agents useful for the treatment of disorders related thereto” (priority 2023, dated 2026)

Protein sequences, listed by entry. Tags and fused reporters are not part of them.
UniProt P08908, whole entry: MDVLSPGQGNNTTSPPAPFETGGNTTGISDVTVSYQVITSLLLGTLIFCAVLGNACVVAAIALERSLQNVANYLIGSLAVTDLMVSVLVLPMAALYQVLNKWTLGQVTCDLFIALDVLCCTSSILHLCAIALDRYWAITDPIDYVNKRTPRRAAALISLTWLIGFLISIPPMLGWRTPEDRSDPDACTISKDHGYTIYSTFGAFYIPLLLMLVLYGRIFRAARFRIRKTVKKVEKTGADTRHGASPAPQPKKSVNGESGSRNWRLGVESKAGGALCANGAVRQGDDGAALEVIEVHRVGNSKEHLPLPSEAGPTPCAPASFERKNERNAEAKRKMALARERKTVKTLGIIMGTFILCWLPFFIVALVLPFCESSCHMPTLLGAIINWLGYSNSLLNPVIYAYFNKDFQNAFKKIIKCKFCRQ

Key:
[1] = target: human 5-hydroxytryptamine receptor 1A (5-HT1A) (Homo sapiens, UniProt P08908); experiment: Human 5-HT1A radioligand binding assay ([3H]-8-Hydroxy-DPAT); settings: [3H]-8-Hydroxy-DPAT displacement, cell membrane, 27° C., 90 min; read-out: h5-HT1A, IC50
Protocol: The objective of this study was to evaluate the binding properties of test compounds on 5-hydroxytryptamine receptor 1A (5-HT1A).
1. The assay buffer was prepared following Table 25 below.
2. 8 doses of reference and test compounds were prepared starting from 10 mM stock solution as required by 5-fold serial dilutions with 100% (v/v) DMSO.
3. UniFilter-96 GF/B plate was pretreated: • i. 50 μl/well of 0.5% (v/v) PEI was added to UniFilter-96 GF/B plates. The plates were sealed and incubated at 4° C. for 3 hrs. • ii. After incubation, the plates were washed 3 times with ice-cold wash buffer (50 mM Tris, pH7.4).
4. Assay plate was prepared: • i. Cell membrane was diluted with assay buffer and 100 μl/well was added to 96 round well plates to reach a concentration of 20 μg/well. • ii. 8 concentrations of reference or test compounds were prepared and 50 μl/well was added to 96 round deep well plates. • iii. […]
10. The plate was read by using a Microbeta^2 microplate counter.
1. For reference and test compounds, the results were expressed as % Inhibition, using the normalization equation: N=100−100×(U−C2)/(C1−C2), where U is the unknown value, C1 is the average of high controls, and C2 is the average of low controls.
2. The IC50 was determined by fitting percentage of inhibition as a […] of compound concentrations with Hill equation using XLfit. […]

human 5-HT1A receptor = target: T1, human 5-HT1A receptor (Homo sapiens, UniProt P08908); experiment: Human 5-HT1A cAMP assay; format: cell-based
T1 construct: expressed in transfected cells; host or cells: CHO-K1
Protocol: Compound potency (EC50) and efficacy (Max response) against the human 5-HT1A receptor in stably transfected CHO-K1 cells were determined in a GPCR cell-based CAMP assay.
(§1) Cells were seeded in a total volume of 20 μL into white walled, 384-well microplates and incubated at 37° C. overnight before analysis. Prior to testing, cell plating media was exchanged with 10 μL of Assay buffer (HBSS+10 mM HEPES). Briefly, intermediate dilution of sample stocks were performed to generate 4× sample in assay buffer. 5 μL of 4× samples+5 μL of 4× forskolin were added to cells and incubated at 37° C. for 30 minutes (mins). The final assay vehicle concentration was 1%.
as §1, with “sample stocks was performed to” for “sample stocks were performed to”, “generate 4× samples in assay” for “generate 4× sample in assay”, “4× forskolin was added to” for “4× forskolin were added to”, “for 30 mins. The final” for “for 30 minutes (mins). The final”

| Compound | IC50 [1] [nM] | EC50 (human 5-HT1A receptor; cAMP assay with forskolin, stably transfected CHO-K1 cells, 30 min) [nM] | Emax (% of serotonin) (human 5-HT1A receptor; cAMP assay, CHO-K1 cells, relative to maximum response of serotonin) |
| --- | --- | --- | --- |
| COc1ccc2[nH]cc(CCN(C)C)c2c1 [5-MeO-DMT] | 6 | – | – |
| COc1ccc2[nH]cc(CCN(C)C)c2c1 [5MeO-DMT] | – | 12.7 | 99.98 % of serotonin |
